The results in this text go back to patent US20180057505A1, “BICYCLIC HETEROARYL COMPOUNDS USEFUL AS INHIBITORS OF THE PAR-2 SIGNALING PATHWAY” (VERTEX PHARMACEUTICALS INCORPORATED, priority 2015, published 2018).

Chains of the proteins cited; added tags and fusions are not shown. Residues count along the entry.
UniProt P55085, 26-397 limits assumed: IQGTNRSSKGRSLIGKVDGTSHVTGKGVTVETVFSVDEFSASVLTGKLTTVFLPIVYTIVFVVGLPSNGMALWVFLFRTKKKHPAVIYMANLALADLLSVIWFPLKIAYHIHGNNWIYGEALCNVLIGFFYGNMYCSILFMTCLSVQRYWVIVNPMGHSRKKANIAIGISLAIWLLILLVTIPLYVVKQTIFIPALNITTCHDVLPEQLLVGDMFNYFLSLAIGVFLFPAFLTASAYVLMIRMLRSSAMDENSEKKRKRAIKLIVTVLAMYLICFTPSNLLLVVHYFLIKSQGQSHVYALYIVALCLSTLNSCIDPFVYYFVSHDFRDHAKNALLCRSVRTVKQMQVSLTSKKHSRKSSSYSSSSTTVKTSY

pIC50: −log10 of the molar value.

In assay [1] the test system is UTP-stimulated Ca2+ response in HT-29 cells. In words: Ca FLIPR TETRA assay, ANTAGONIST mode, activator 0.6 μM UTP. To be noted: read-out: UTP IC50. The procedure:
(§1) Protocol for Testing PAR2 Compounds in ANTAGONIST Mode Using the Ca FLIPR^TETRA Assay (384 Well).
(§2) 23000 HT-29 cells (ATCC# HTB-38) were plated in 384-well black, transparent-flat bottom plates and incubated in 25 uL of 1% FBS/McCoy's media ON at 37° C. under an atmosphere of 5% CO2. The following day, 25 uL FLIPR calcium 5 Molecular Devices assay reagent (Cat: R-8186) was added. Plates were incubated at 37° C. and r. t. for 45 min and 15 min, respectively. Compounds dilutions were prepared in 100% DMSO using a Biomek FX and diluted 20-fold in HBSS and then 5.5 uL was added directly to the cells by the FLIPR^TETRA (10× dilution) using FLIPR Tetra Pipette tips, black, non-sterile, 384 Molecular Devices (Cat: 9000-0764).
(§3) A first read was performed to determine whether the test compounds on their own can activate Ca^2+ responses. The cells were incubated with the compounds for 30 min at r. t. and then read in ANTAGONIST mode in the same plate by stimulating with 6.2 uL of a fixed concentration of the activator: final concentrations 8 μM SLIGKV, 1 U/mL Thrombin, 3.1 U/mL trypsin, or 0.6 μM UTP.

In assay [2] the test system is Thrombin-stimulated Ca2+ response in HT-29 cells. The assay is described as follows: Ca FLIPR TETRA assay, ANTAGONIST mode, activator 1 U/mL Thrombin. The conditions noted are these: read-out: Thrombin IC50. The procedure: as §1, §2, §3
Assay [3] has as its target T1, PAR2 (HT-29 cells) (Homo sapiens, UniProt P55085). The assay is described as follows: Ca FLIPR TETRA assay, ANTAGONIST mode, activator 8 μM SLIGKV. The conditions noted are these: read-out: SLIGKV IC50, Method A: maximal concentration of antagonist 0.1, 1 or 2 μM. How it is done: as §1, §2, §3
For assay [4], the target named is T1, PAR2 (HT-29 cells). In words: Ca FLIPR TETRA assay, ANTAGONIST mode, activator 3.1 U/mL trypsin. The conditions noted are these: read-out: Trypsin IC50, Method A: maximal concentration of antagonist 0.1, 1 or 2 μM. The procedure: as §1, §2, §3

As for `CC(C)(C)c1cc(N2CC3(CCC3)C2)nc2cc(C(=O)N3CCN(C(=O)[C@H]4C[C@@](C)(O)C4)CC3(C)C)oc12` (relative stereo), the pIC50 was below 5.70 in assay [1], below 5.70 in assay [2], 7.52 at PAR2 (HT-29 cells) [3] and 7.41 at PAR2 (HT-29 cells) [4].
For `Cn1ncc(N2CCN(C(=O)c3cc4nc(-c5ccc(Cl)c(F)c5)cc(C(C)(C)C)c4o3)C(C)(C)C2=O)n1`, the pIC50 in assay [1] was below 5.70; in assay [2] it was below 5.70; at PAR2 (HT-29 cells) [3], 8.47; on PAR2 (HT-29 cells) [4] it was 8.19.
